Consider one compound from ChEMBL document CHEMBL2163293, “Rational approaches to improving selectivity in drug design” (J Med Chem, 2012).

Usually Ki stands for the dissociation constant of the complex between target and ligand, obtained from inhibition or displacement. A low value points to a stronger hold on the target.

The target in the assay is Protease (Human immunodeficiency virus 1, UniProt Q9YQ12). Nature of the assay: Binding affinity to wild type HIV1 protease.

Regarding `CC(C)(C)NC(=O)[C@@H]1C[C@@H]2CCCC[C@@H]2CN1C[C@@H](O)[C@H](Cc1ccccc1)NC(=O)[C@H](CC(N)=O)NC(=O)c1ccc2ccccc2n1` [SAQUINAVIR], the Ki was 0.65 nM.
